Measured values as given in patent US20100041920A1, “NEW SALT FORMS OF AN AMINOINDAN DERIVATIVE” (priority 2008, published 2010).

[1] = 10 months, room temperature, ambient atmosphere

rasagiline L-tartrate
Colour/Aspect 10 months later [1]: white powder
Purity (HPLC) 10 months later [1]: 99.52%
XRD result 10 months later [1]: Form I
XRD result Initial (initial, before storage): Form I
stability after ten months of storage (in words) (ten months of storage): highly stable in terms of polymorphic form
